Measurements published in patent publication US11116757B2 (priority 2015, dated 2021).

Sequences of proteins named here, by UniProt entry; tags and fusion partners are left off. Residues count along the entry.
UniProt Q96GG9, 60-248 limits assumed: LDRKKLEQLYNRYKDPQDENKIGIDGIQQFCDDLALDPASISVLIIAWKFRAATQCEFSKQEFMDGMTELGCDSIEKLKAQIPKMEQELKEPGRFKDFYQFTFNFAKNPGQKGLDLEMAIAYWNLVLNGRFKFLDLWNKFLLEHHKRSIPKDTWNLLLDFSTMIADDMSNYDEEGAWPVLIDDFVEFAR

Molecular target: DCN1-UBC12 interaction (Homo sapiens (Human), UniProt Q96GG9)
Format: binding
Details: read-out: TR-FRET IC50

Structure (SMILES) | IC50
CCCC(C)N1CCC(N(Cc2ccccc2)C(=O)Nc2ccc(F)c(F)c2)CC1 (centres unmarked) [A80] | 817 nM
CCCC(C)N1CCC(N(Cc2ccccc2)C(=O)Nc2ccc(C(C)C)cc2)CC1 (centres unmarked) [A74] | 654 nM
CCCC(C)N1CCC(N(Cc2ccccc2)C(=O)Nc2ccc3ncsc3c2)CC1 (centres unmarked) [A73] | 626 nM
Cc1ccc(CN2CCC(NC(=O)Nc3cccc(C(F)(F)F)c3)CC2)cc1 [A179, 1-(1-(4-Methylbenzyl)Piperidin-4-yl)-3-(3-(Trifluoromethyl)Phenyl)Urea] | 16600 nM
CCCC(C)N1CCC(N(Cc2ccccc2)C(=O)Nc2ccc(C#N)c(C(F)(F)F)c2)CC1 (centres unmarked) [A47] | 259 nM
